Data as given in patent publication US7384912B2, “Treatment of bone disorders with skeletal anabolic drugs” (Osteotrophin, LLC, priority 2002, dated 2008).

Test system: ovariectomized (OVX) rats
Experiment: Biomechanical measures of strength in ovariectomized rats
Type: in vivo, rat
Conditions: 40 μg/kg/day s.c. once daily, 180 days

Substance: hPTH-(1-34)
- Mid-Femur Young's Modulus (E): 10.7 ± 0.4^ac Gpa
